The target in one assay is Abl (T315I) (Homo sapiens, UniProt P00519, T315I). The assay can be described thus: Abl (T315I) Kinase Assay (KinaseGlo luminescent detection of residual ATP). The note with it: read-out: Abl (T315I) IC50; Abl (T315I) (Upstate, 17 ng/well), Abltide 100 uM, ATP 500 nM, 60 minutes at 37° C. Background: In Kinase-Glo more light means more ATP remaining.
In a further assay the target is Abl kinase (Homo sapiens, UniProt P00519).

Chains of the proteins cited; added tags and fusions are not shown. Lines headed by an entry give the natural chain unless they say otherwise; changes in a name come on top.
UniProt P00519, whole entry: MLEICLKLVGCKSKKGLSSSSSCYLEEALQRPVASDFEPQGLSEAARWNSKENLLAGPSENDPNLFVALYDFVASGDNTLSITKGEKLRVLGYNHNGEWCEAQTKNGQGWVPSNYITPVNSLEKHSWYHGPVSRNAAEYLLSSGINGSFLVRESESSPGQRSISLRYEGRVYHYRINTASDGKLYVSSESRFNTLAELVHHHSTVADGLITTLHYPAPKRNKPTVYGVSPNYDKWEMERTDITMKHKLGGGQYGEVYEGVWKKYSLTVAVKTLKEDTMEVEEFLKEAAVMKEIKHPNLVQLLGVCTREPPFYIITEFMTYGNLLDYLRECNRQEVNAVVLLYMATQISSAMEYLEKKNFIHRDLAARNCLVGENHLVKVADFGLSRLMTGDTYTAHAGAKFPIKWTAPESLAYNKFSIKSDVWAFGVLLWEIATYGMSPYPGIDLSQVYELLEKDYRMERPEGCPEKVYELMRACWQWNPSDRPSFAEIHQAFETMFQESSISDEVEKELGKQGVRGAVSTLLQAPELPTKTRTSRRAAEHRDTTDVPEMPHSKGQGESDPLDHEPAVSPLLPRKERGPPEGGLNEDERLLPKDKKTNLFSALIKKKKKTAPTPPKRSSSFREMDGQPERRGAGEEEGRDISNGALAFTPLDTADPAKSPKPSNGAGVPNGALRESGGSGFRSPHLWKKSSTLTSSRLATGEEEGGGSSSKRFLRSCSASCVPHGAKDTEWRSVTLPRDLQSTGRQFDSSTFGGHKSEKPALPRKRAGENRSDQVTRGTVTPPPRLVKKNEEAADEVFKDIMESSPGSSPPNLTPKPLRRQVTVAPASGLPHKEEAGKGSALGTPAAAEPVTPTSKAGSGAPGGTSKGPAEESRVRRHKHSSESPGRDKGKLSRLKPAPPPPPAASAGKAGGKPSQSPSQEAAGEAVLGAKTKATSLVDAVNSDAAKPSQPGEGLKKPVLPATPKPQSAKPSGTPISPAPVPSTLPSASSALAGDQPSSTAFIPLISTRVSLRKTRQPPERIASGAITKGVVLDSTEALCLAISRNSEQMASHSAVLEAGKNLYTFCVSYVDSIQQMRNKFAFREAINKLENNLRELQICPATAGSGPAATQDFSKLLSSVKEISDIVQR
UniProt P00519, whole entry T315I: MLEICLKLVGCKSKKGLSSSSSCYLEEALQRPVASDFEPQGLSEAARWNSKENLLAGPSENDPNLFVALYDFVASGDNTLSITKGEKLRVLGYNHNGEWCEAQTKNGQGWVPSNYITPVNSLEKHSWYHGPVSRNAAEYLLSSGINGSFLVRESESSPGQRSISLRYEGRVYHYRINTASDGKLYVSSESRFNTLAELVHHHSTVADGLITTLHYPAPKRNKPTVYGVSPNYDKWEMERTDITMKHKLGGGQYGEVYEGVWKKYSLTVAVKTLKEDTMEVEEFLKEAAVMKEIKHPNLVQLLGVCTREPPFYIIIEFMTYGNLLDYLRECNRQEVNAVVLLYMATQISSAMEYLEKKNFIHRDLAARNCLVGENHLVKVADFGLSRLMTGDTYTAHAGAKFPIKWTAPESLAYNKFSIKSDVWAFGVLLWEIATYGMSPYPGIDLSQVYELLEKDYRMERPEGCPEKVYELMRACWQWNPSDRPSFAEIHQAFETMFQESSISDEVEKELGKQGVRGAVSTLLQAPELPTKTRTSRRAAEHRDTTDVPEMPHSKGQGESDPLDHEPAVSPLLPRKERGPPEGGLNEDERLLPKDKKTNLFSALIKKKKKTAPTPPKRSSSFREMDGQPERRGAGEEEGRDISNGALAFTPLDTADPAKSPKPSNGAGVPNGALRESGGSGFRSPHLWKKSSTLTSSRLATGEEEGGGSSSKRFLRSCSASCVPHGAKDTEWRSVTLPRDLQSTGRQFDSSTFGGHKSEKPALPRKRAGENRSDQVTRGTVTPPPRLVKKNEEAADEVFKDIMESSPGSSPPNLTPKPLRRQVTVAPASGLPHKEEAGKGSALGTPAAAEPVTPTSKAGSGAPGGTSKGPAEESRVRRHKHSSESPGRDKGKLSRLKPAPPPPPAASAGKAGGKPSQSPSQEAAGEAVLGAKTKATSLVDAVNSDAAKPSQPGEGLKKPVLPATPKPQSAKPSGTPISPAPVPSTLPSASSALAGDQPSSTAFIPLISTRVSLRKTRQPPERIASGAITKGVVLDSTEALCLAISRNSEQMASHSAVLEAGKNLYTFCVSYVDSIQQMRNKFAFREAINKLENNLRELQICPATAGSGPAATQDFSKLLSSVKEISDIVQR

Turning to `Nc1noc2cc(/C=C/c3cnc(Nc4ccc(S(=O)(=O)C5CCNCC5)cc4)nc3)ccc12`, the IC50 – broadly, the concentration at which inhibition is half-maximal – was 899 nM on Abl (T315I) and 794 nM against Abl kinase.

For the molecule `Nc1noc2c(/C=C/c3cnc(Nc4ccc(S(=O)(=O)C5CCNCC5)cc4)nc3)cccc12`, the IC50 was determined as 201 nM at Abl (T315I) and 4.7 nM at Abl kinase.

For the origin of these results see patent US20070149508A1, “Six membered heteroaromatic inhibitors targeting resistant kinase mutations” (TargeGen, Inc., priority 2005, published 2007).
